Bioassay records: PubChem BioAssay, National Center for Advancing Translational Sciences (NCATS)
ERG-DNA inh = inhibitors of human ERG Ets domain-DNA interaction | AID 624246 | P11308 | fluorescence polarization, His-ERG Ets domain / labelled DNA | Potency, µM (top dose mostly 76.9 µM), for inactives: at the highest dose FP activity, negative = inhibition, most hits filed as inhibitors | 0.028% of 370,000 active; active = well fitted inhibition curve with a large enough effect in the polarisation, with a control signal flat; inconclusive = small, poorly fitted or top-dose-only effect, or effect the other way, or a change in a side signal; inactive = no such curve, though single readings can be large or run the other way; the % refers to the polarisation;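 note: polarization taken with two DNA probes labelled with fluorescein and Texas red; potency is the fitted concentration of half-maximal effect; % of control where 0% means no effect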
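His-tagged ERG Ets domain (1 uM in the protein solution; 300mM KCl, 50mM Tris-HCl, 1mM EDTA, 1mM DTT, pH 7.5) received compound, then a probe mix of 5 nM fluorescein-DNA and 100nM Texas-615-DNA. Fluorescence polarization was read for both dyes.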
ASM inhibitor = inhibitors of human secretory acid sphingomyelinase | AID 504937 | Potency, µM (titrated, usually from 57.5 µM), without a hit: at the top dose activity change, negative = inhibition, usual class: inhibitors | placental ASM, HMU-PC fluorogenic substrate, 60 min | 0.006% of 340,000 active; note: potency is the fitted concentration of half-maximal effect
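Human placenta-derived ASM preincubated with compound 10 min at room temperature, then reacted with 9 uM (final) fluorogenic HMU-PC substrate for 60 min at 37 C. Stop solution raises pH to 10; fluorescence read at Ex 386/Em 447 nm.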
RXFP1 antagonist = RXFP1 (human) relaxin receptor antagonism; Q9HBX9; HEK293-RXFP1, relaxin-stimulated cAMP HTRF, 30 min; active compounds read low; activity change, negative = inhibition, % at 57.5 µM; 0.59% of 350,000 active; AID 1259400;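 active = activity change of -60% or lower, but not beyond a set lower limit; inconclusive = change between -60% and -40%, or beyond the set limit; inactive = change above -40%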; note: % is set by controls: 0 for no effect and ±100 for the full control effect
RXFP1 ag = activates the human relaxin receptor RXFP1; Potency, µM (top dose mostly 57.5 µM), for the others: top-dose activation, actives largely listed as activators; Q9HBX9; AID 2676; 0.3% of 370,000 active; HEK293T-RXFP1 cAMP TR-FRET, 30 min; response scale: percent of porcine relaxin response, buffer zero; note: potency is the fitted concentration of half-maximal effect; % is set by controls: 0 for no effect and ±100 for the full control effect; nearly all actives have a fitted effect of over 60% in size
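HEK293T cells stably expressing RXFP1 were pretreated with the PDE4 inhibitor Ro 20174, exposed to compounds for 30 min at 37C, lysed, and cAMP was read by TR-FRET. Data normalized to buffer (basal) and 29 nM porcine relaxin (100%).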
miR-21 reporter = raises the signal of a miR-21 reporter | Potency, µM (doses to about 38.3 µM), for inactives: top-dose reporter change, positive = more light | HeLa miR-21 FLuc reporter, luciferase, 48 h | AID 2288 | 340,000 tested, under 10 active; active = well fitted rising curve with a large enough effect; inconclusive = small, poorly fitted or top-dose-only effect; inactive = no such curve, though single readings can be large or run the other way;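 also: % of control where 0% means no effect; miR-21 action dims this reporter so a rising signal means less miR-21 action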
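HeLa cells stably expressing CMV-driven firefly luciferase with a downstream miR-21 binding sequence, endogenously expressing miR-21, were treated with titrations (up to about 40uM final) for 48 hours at 37 degree Celsius. Luciferase luminescence was read after lysis.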
Mito fusion yeast = mitochondrial division inhibition or fusion activation; S. cerevisiae fusion-defective mutant growth rescue, CellTiterGlo 48 h; Potency, µM (series often up to 46.1 µM), for the others: at the highest dose growth rescue (activation), actives largely listed as activators; 0.23% of 320,000 active; note: potency is the fitted concentration of half-maximal effect; % of control where 0% means no effect; nearly all actives have a fitted effect of over 45% in size
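S. cerevisiae fusion-defective temperature-sensitive mutants (e.g. fzo1-1, mgm1-5) grown 48 h at 37C in YPEG (ethanol/glycerol non-fermentable) medium with 23 nl compound per well; growth rescue read as CellTiterGlo luminescence.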
* hit, by the source's call; ? = inconclusive; · = not tested or not shown; ! = not confirmed by another sample. An excerpt weighted towards active compounds, which were near 0.72% of everything screened. Unless noted, calls come from the whole dose curve; as a rule, active = well fitted curve in the direction sought with a large enough effect; inconclusive = small, poorly fitted or top-dose-only effect, or another doubt; inactive = no such curve, though single readings can be large; an effect the other way counts as inactive or inconclusive.

Screens in order: ERG-DNA inh	ASM inhibitor	RXFP1 antagonist	RXFP1 ag	miR-21 reporter	Mito fusion yeast
> CCC(=O)O[C@H]1CC[C@H]2[C@@H]3CCC4=CC(=O)CC[C@]4(C)[C@H]3CC[C@]12C
    18.8%	-7.3%	-68.0*	·	·	·
> O=C1NC(=O)N(Cc2ccc(F)cc2)C(=O)/C1=C\C=C\c1ccco1
    63.8%	-7.6%	-69.7*	0.9%	9.0%	0.0%
> CC(C)c1ccc(N2C(=O)NC(=O)/C(=C/C=C/c3ccco3)C2=O)cc1
    16.4%	-2.1%	-80.3*	0.1%	-11.0%	-2.3%
> Cc1ccc(N2C(=O)NC(=O)/C(=C/C=C/c3ccco3)C2=O)cc1
    ?	3.3%	-62.2*	0.8%	16.6%	-8.6%
> CCc1ccc(N2C(=O)NC(=O)/C(=C\C=C\c3ccco3)C2=O)cc1
    84.5%	-2.7%	-27.0	1.4%	5.5%	2.0%
> O=c1[nH]c(=S)[nH]c(O)c1N=Nc1ccc(-c2ccccc2)cc1[N+](=O)[O-]
    ·	·	·	2.4%	-48.8%	9.3%
> CCOC(=O)C1=C(CN2CCN(c3ccc(C)cc3C)CC2)NC(=O)NC1c1ccc(OC)cc1 (centres undefined)
    5.4%	·	-11.2	3.5%	?	·
> O=C(O)c1ccc2c(c1)C1C(Cl)C(Sc3ccccc3[N+](=O)[O-])CC1C(c1cccc([N+](=O)[O-])c1)N2 (centres undefined)
    3.8%	-14.9%	-88.7*	-0.6%	-1.0%	3.3%
> CC1(C)OC1COc1c2occc2cc2ccc(=O)oc12 (centres undefined)
    -0.8%	1.1%	·	1.1%	-5.6%	5.9%
> CC(C)=CCOc1c2occc2cc2ccc(=O)oc12
    -5.4%	-2.2%	8.5	0.6%	-10.9%	16.4µM*!
> C=C[C@@H]1C[C@@]1(C)[C@@H](NP(=O)(c1ccccc1)c1ccccc1)c1ccccc1
    2.6%	3.6%	·	0.0%	14.7%	17.8µM*
> Cc1ccccc1C(=O)Nc1ccc(C(=O)OCc2cc(=O)n3nc(C4CC4)sc3n2)cc1
    1.1%	·	-31.5	4.0%	?	·
> COc1ccc(C(c2ccc(OC)cc2)C(Cl)(Cl)Cl)cc1
    ?	-13.2%	-93.5*	0.7%	·	11.4%
> COc1ccc(C(O)C(C)NC(C)C(O)c2ccc(OC)cc2)cc1 (centres undefined)
    3.8%	2.3%	-0.5	·	·	·
> COc1ccc(CNCCc2c(C)[nH]c3ccc(OC(F)(F)F)cc23)c(OC)c1
    -3.0%	-6.1%	-83.4*	0.4%	?	-5.5%
> CCC(=O)C(CCN(C)C)(c1ccccc1)c1ccccc1
    ·	·	8.6	·	·	·
> O=c1[nH]c(=S)n(Cc2ccc(F)cc2)c(O)c1C=NCc1ccc2c(c1)OCO2
    -6.2%	2.6%	6.4	25.1µM*	-7.0%	-1.1%
> Clc1ccc2c(c1)C(c1ccccc1Cl)=NCc1nnc(N3CCN(CCOc4ccccc4)CC3)n1-2
    8.7%	-7.6%	-12.3	1.9%	-2.6%	12.6µM*
> C[C@]12CC[C@H]3[C@@H](CCC4=CC(=O)CC[C@@H]43)[C@@H]1CC[C@@H]2OC(=O)CCC1CCCCC1
    ·	·	-10.6	·	·	·
> O=c1c(C2CC(c3ccc(-c4ccc(Br)cc4)cc3)Cc3ccccc32)c(O)sc2ccccc12 (centres undefined)
    ·	·	-72.2*	·	·	·
> CCCN(CCC)c1c([N+](=O)[O-])cc(S(N)(=O)=O)cc1[N+](=O)[O-]
    ·	·	-73.5*	·	·	·
> CCN(CCNc1ccc([N+](=O)[O-])c2cccnc12)S(=O)(=O)c1ccccc1
    -5.6%	3.0%	-3.7	1.3%	-5.6%	-2.1%
> C[n+]1c(-c2ccccc2)cc(-c2ccc(Cl)cc2)cc1-c1ccccc1
    -4.3%	0.5%	-88.3*	3.3%	?	3.7%
> CN(C)S(=O)(=O)c1ccc(C(=O)NCCSc2c(-c3ccccc3)[nH]c3ccccc23)cc1
    -1.4%	·	-17.5	0.8%	?	·
> Cc1ccccc1CN1C(=O)CN=C(c2ccccc2)c2cc(Cl)ccc21
    3.8%	·	-95.5*	0.5%	25.7%	·
> CCc1ccc(CN2CCN(Cc3ccc(SC)cc3)CC2)cc1
    -3.8%	-2.4%	-61.9*	-0.1%	21.0%	1.3%
> O=C(O)CNC1c2ccccc2CSc2ccccc21 (centres undefined)
    -7.2%	1.9%	-63.2*	·	·	·
> C#CC(O)(C=CCl)CC (centres undefined)
    ·	·	-7.5	·	·	·
> COc1ccc2oc(=O)c(C(=O)NCCc3c(C)[nH]c4ccc(F)cc34)cc2c1
    0.1%	·	·	0.5%	?	·
> CN(C)c1ccc(CN2CCc3nc(N4CCN(c5ccccn5)CC4)ncc3C2)cc1
    -1.3%	·	-62.7*	4.5%	?	·

Quoted from the listing:
O=c1[nH]c(=S)[nH]c(O)c1N=Nc1ccc(-c2ccccc2)cc1[N+](=O)[O-] | RXFP1 ag: 2.4%
C=C[C@@H]1C[C@@]1(C)[C@@H](NP(=O)(c1ccccc1)c1ccccc1)c1ccccc1 | ERG-DNA inh: 2.6%
C[C@]12CC[C@H]3[C@@H](CCC4=CC(=O)CC[C@@H]43)[C@@H]1CC[C@@H]2OC(=O)CCC1CCCCC1 | RXFP1 antagonist: -10.6

Next compounds follow:
canonical_smiles	ERG-DNA inh	ASM inhibitor	RXFP1 antagonist	RXFP1 ag	miR-21 reporter	Mito fusion yeast
COc1cc(CN2CCc3nc(N4CCN(c5ccccn5)CC4)ncc3C2)cc(OC)c1OC	-2.4%	·	-78.6*	5.3%	?	·
CN1C2CCC(C)(C)C1CC(OC(=O)C(O)(c1cccs1)c1cccs1)C2 (centres undefined)	·	·	6.4	·	·	·
O=P(O)(O)/C=C(\Cl)c1ccccc1	0.5%	22.4µM*	6.3	-1.5%	0.7%	1.2%
COc1cccc(C(=O)CCN[C@@H](C)[C@H](O)c2ccccc2)c1	·	·	20.4	·	·	·

Compounds shown so far containing two or more sulfur atoms:
canonical_smiles	ERG-DNA inh	ASM inhibitor	RXFP1 antagonist	RXFP1 ag	miR-21 reporter	Mito fusion yeast
CN(C)S(=O)(=O)c1ccc(C(=O)NCCSc2c(-c3ccccc3)[nH]c3ccccc23)cc1	-1.4%	·	-17.5	0.8%	?	·
CN1C2CCC(C)(C)C1CC(OC(=O)C(O)(c1cccs1)c1cccs1)C2 (centres undefined)	·	·	6.4	·	·	·
